In patent US8759357B2, “Inhibitors of fatty acid binding protein (FABP)” (Merck Sharp & Dohme Corp., priority 2009, dated 2014) one finds Kd data, which are given here for one compound.

Sequences of proteins named here, by UniProt entry; tags and fusion partners are left off.
UniProt Q01469, whole entry: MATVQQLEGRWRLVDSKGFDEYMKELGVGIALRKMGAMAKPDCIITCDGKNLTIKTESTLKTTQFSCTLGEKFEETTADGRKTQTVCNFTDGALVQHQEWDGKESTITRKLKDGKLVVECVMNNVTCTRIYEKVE
UniProt P15090, whole entry: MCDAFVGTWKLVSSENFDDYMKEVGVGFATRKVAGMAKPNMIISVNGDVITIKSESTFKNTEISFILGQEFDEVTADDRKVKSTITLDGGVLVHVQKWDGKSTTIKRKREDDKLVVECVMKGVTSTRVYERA

For one assay, the target named is FABP5 (Homo sapiens, UniProt Q01469). Description: TdCD (Temperature-Dependent Circular Dichroism) assay for FABP5. As to conditions: read-out: FABP5 TdCD Kd; compounds at 50 μM and 25 μM; Kd calculated at T=20° C.; 50% uncertainty. The source says:
[formula] (see Brandts et al and Mayhood et al, shown above) where ΔHL (T) is the van't Hoff enthalpy of ligand binding at temperature T and ΔCpL is the heat capacity upon ligand binding. For simplicity, the ΔCpL and ΔHL (T) were set to zero and −7 kcal/mol respectively. (The ΔCpL accounts for minimal portion of total protein-ligand binding energetics and is therefore set to zero (For example, see Hossein Naghibi et al, Proc. Natl. Acad. Sci. 92, 5597-5599 (1995), where ΔCpL was estimated to ˜2% of ΔHL at 25° C. obtained from calorimetric study of binding Rnase A and 2′-CMP)). TdCD (Temperature-Dependent Circular Dichroism) Assay for FABP3/4/5
JASCO 810 spectropolarimeter was used to measure Circular Dichroism (CD) spectra and temperature-dependent protein unfolding profiles. The instrument is equipped with a 6-cell piezoelectric temperature controller. Ellipticity was monitored at 226 nm as a function of temperature with a 1 mm path length cell. […]
Briefly, the To (midpoint of unfolding for the unliganded protein) was calculated from best fit of the unfolding data to the equation below: […]
Based on estimates for enthalpy of binding, ΔHL (estimated to be −7 kcal/mol) and ligand binding heat capacity ΔCpL (set to be zero), the ligand binding association constant (KL) at temperature T=20° C. were calculated as below. […]

The next assay has as its target FABP4 (Homo sapiens, UniProt P15090). Description: TdF (Temperature Dependence Fluorescence) thermal shift assay for FABP4. As to conditions: read-out: FABP4 TdF Kd; 3 μM protein; 15, 50 or 100 μM compound; Kd from ΔTm. The source says:
TdF (Temperature Dependence Fluorescence) Assay for FABP3 and FABP4
The SAR (Structure Activity Relationship) for FABP3 and FABP4 ligands covered by this invention was interrogated using the TdF (Temperature Dependence Fluorescence) assay or best known as thermal shift assay (M. W. Pantoliana et al, J. Biomol. Screen 6 (2001) 429-440). The TdF assay was mainly conducted in the 96-well based CHROMO-4 real time fluorescence plate reader (BioRad). The Sypro Orange (Sigma-Aldrich), environmentally sensitive fluorescence dye, was used to monitor the protein folding-unfolding transition. […]
The compound of interest was first prepared in DMSO stock (typical concentration: 10 mM). […] The fluorescence signals were acquired with excitation and emission wavelengths centered at 490 and 560 nm respectively. […]
The derivation of TdF-based ligand binding affinity constant (Kd) followed closely those previously formulated by Brandts and Lin, Biochemistry 29 (1990) 6927-6940. In brief, the binding constant of the ligand at the Tm is expressed as below:
[formula] where T0 is the midpoint of unfolding for unliganded protein and Tm is the midpoint of unfolding in presence of ligand. […] The ΔCPu is proportional to the size of protein and is an approximate quantity in the above equation (empirically, ΔCpu=(MW of protein/115)*14 cal/mol*K). […]

As usually defined, the Kd is the free concentration of one partner at which half of the binding sites on the other are occupied at equilibrium, for simple one-to-one binding. Consider `CN(Cc1cccc(Cl)c1)Cc1cc(=O)n2nc(-c3ccccc3)nc2[nH]1`, for which the equilibrium dissociation constant (Kd) at FABP5 was 0.5 to 100 µM; at FABP4, 200 to 5000 nM.
